Experimental data taken from patent US20250313563A1, “GLYCOGEN SYNTHASE KINASE 3 INHIBITORS AND USES THEREOF” (The Broad Institute, Inc., priority 2022, published 2025).
Where two headings read alike, the source gives them in different places.

The chains behind the UniProt entries cited, without tags or fusion partners.
UniProt P49840, whole entry: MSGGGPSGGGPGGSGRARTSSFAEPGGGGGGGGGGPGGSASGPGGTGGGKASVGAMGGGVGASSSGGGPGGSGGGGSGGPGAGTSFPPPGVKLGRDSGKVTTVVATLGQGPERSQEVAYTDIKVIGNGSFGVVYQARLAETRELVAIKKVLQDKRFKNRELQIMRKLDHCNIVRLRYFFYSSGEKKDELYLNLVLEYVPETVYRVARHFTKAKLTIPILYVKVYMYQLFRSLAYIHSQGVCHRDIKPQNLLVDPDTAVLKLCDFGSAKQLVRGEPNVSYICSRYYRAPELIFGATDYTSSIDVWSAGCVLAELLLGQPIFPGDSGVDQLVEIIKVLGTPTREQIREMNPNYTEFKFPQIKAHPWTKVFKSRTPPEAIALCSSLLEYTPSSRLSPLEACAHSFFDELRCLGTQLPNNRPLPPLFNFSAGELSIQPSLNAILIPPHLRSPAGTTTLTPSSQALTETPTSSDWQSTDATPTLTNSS
UniProt P49841, whole entry: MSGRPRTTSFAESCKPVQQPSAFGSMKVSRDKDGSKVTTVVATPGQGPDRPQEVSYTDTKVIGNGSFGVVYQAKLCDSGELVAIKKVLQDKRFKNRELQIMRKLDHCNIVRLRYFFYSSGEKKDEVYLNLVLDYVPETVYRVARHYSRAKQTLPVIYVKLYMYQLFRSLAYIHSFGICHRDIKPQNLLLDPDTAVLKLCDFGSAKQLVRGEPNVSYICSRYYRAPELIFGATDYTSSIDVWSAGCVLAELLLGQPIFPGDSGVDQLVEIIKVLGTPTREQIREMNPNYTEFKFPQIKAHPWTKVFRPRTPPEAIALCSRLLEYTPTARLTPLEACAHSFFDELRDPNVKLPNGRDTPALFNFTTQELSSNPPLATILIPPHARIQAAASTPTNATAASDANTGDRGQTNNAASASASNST

Legend:
[1] = biological target: GSK3α (GST-full length GSK3α) (Homo sapiens (Human), UniProt P49840); test: GSK3α TR-FRET kinase assay; format: biochemical
[2] = biological target: GSK3b (GST-full length GSK3b) (Homo sapiens (Human), UniProt P49841); test: GSK3b TR-FRET kinase assay; format: biochemical
[3] = read-out: GSK3-A TR-FRET BIOCHEMICAL (TR-FRET);, 1 nM GSK3α, 4 μM ATP, 30 minute preincubation, Table 16
[4] = read-out: GSK3-B TR-FRET BIOCHEMICAL (TR-FRET);, 1 nM GSK3b, 2 μM ATP, 30 minute preincubation, Table 16
[5] = read-out: GSK3-A TR-FRET BIOCHEMICAL (TR-FRET), GMean, IC50, 1 nM GSK3α, 4 μM ATP, 30 minute preincubation, geometric mean
[6] = read-out: GSK3-B TR-FRET BIOCHEMICAL (TR-FRET), GMean, IC50, 1 nM GSK3b, 2 μM ATP, 30 minute preincubation, geometric mean
[7] = read-out: GSK3-A TR-FRET BIOCHEMICAL (TR-FRET), IC50, 1 nM GSK3α, 4 μM ATP, 30 minute preincubation (Table 16)
[8] = read-out: GSK3-B TR-FRET BIOCHEMICAL (TR-FRET), IC50, 1 nM GSK3b, 2 μM ATP, 30 minute preincubation (Table 16)
[9] = read-out: GSK3-A (TR-FRET 1 mM ATP), GMean, IC50, 1 mM ATP, geometric mean
[10] = read-out: GSK3-B (TR-FRET 1 mM ATP), GMean, IC50, 1 mM ATP, geometric mean

Row | Compound | IC50 [1, 5] | IC50 [2, 6] | IC50 [1, 7] | IC50 [2, 8] | other results
1 | CC[C@]1(c2cccc(-c3cc[n+]([O-])cc3[S@@+](C)[O-])c2)C2=C(CC(C)(C)CC2=O)Nc2n[nH]cc21 | – | – | – | – | IC50 [1, 3]: 100 to 1000 nM; IC50 [2, 4]: 1000 to 5000 nM
2 | CC[C@@]1(c2cccc(-c3ccnc(N4CCCCC4)c3)c2)C2=C(CC(C)(C)NC2=O)Nc2n[nH]cc21 | 1000 to 5000 nM | > 5000 nM | – | – | –
3 | CCC1(c2cccc(-c3cc(C)ncc3F)c2)C2=C(CC(C)(C)NC2=O)Nc2n[nH]c(C(F)(F)F)c21 (centres unmarked) | < 100 nM | < 100 nM | – | – | –
4 | CCC1(c2cccc(N3CC4CCC3CC4)c2)C2=C(CC(C)(C)CC2=O)Nc2n[nH]cc21 (centres unmarked) | – | – | < 100 nM | 100 to 1000 nM | –
5 | CC[C@@]1(c2cccc(-c3cncn3C(C)C)c2)C2=C(CC(C)(C)CC2=O)Nc2n[nH]cc21 | – | – | – | – | IC50 [1, 3]: 100 to 1000 nM; IC50 [2, 4]: 1000 to 5000 nM
6 | CCC1(c2cccc(-c3cnn(C)c3)c2)C2=C(CC(C)(C)CC2=O)Nc2n[nH]cc21 (centres unmarked) | < 100 nM | 100 to 1000 nM | – | – | –
7 | CC[C@]1(c2cccc(C(F)(F)F)c2)C2=C(Nc3n[nH]cc31)C(C)(C)N(C)C2=O | – | – | – | – | IC50 [1, 3]: < 100 nM; IC50 [2, 4]: 100 to 1000 nM
8 | CC[C@@]1(c2cccc(-c3cn(C)nc3C(C)C)c2)C2=C(CC(C)(C)NC2=O)Nc2n[nH]cc21 | 1000 to 5000 nM | > 5000 nM | – | – | –
9 | CC[C@@]1(c2cccc(-c3cc(OC)ncc3F)c2)C2=C(CC(C)(C)NC2=O)Nc2n[nH]cc21 | < 100 nM | < 100 nM | – | – | IC50 [1, 9]: > 5000 nM; IC50 [2, 10]: > 5000 nM
10 | CCC1(c2cccc(N3CCCC3)c2)C2=C(CC(C)(C)CC2=O)Nc2n[nH]c(C)c21 (centres unmarked) [Compound 883874] | < 100 nM | < 100 nM | – | – | –
11 | CC[C@]1(c2cccc(Br)c2)C2=C(C[C@@H](C)CC2=O)Nc2n[nH]c(C(F)(F)F)c21 | < 100 nM | < 100 nM | – | – | –
12 | CCC1(c2cccc(C(C)c3ncccn3)c2)C2=C(CC(C)(C)CC2=O)Nc2n[nH]cc21 (centres unmarked) | – | – | – | – | IC50 [1, 3]: < 100 nM; IC50 [2, 4]: 100 to 1000 nM
13 | CC[C@@]1(c2cccc(-c3cnn(CCOC)c3)c2)C2=C(CC(C)(C)CC2=O)Nc2n[nH]c(C)c21 | – | – | < 100 nM | < 100 nM | –
14 | CC[C@]1(c2cccc(-c3cc(C)nnc3C)c2)C2=C(CC(C)(C)NC2=O)Nc2n[nH]cc21 | – | – | < 100 nM | 100 to 1000 nM | IC50 [1, 9]: 100 to 1000 nM; IC50 [2, 10]: 1000 to 5000 nM
15 | CC[C@@]1(c2cccc(-c3c(Cl)cncc3Cl)c2)C2=C(CC(C)(C)NC2=O)Nc2n[nH]cc21 | 1000 to 5000 nM | > 5000 nM | – | – | –
16 | CC[C@]1(c2cccc(-c3ccncc3C)c2)C2=C(CC3(CCCC3)NC2=O)Nc2n[nH]cc21 | < 100 nM | < 100 nM | – | – | IC50 [1, 9]: < 100 nM; IC50 [2, 10]: 100 to 1000 nM
17 | CC[C@@]1(c2cccc(Br)c2)C2=C(C[C@@H](C)CC2=O)Nc2n[nH]cc21 | < 100 nM | 100 to 1000 nM | – | – | –
18 | CC[C@@]1(c2cccc(-c3cc(C)ncc3F)c2)C2=C(CC(C)(C)NC2=O)Nc2n[nH]c(C)c21 | – | – | < 100 nM | < 100 nM | –
19 | CCc1cc(-c2cccc([C@@]3(CC)C4=C(CC(C)(C)NC4=O)Nc4n[nH]cc43)c2)ccn1 | < 100 nM | 100 to 1000 nM | – | – | –
20 | CCC1(c2cccc(C(C)C)c2)C2=C(CC(C)(C)NC2=O)Nc2n[nH]cc21 (centres unmarked) [Compound 949761] | – | – | < 100 nM | 100 to 1000 nM | –
21 | CC[C@@]1(c2cccc(-c3c(F)cncc3Cl)c2)C2=C(CC(C)(C)NC2=O)Nc2n[nH]cc21 | 1000 to 5000 nM | > 5000 nM | – | – | –
22 | CC1(C)CC(=O)C2=C(C1)Nc1n[nH]c(CCC(F)(F)F)c1[C@]2(C)c1ccccc1 | 100 to 1000 nM | < 100 nM | – | – | –
23 | CCC1(c2cccc(-c3ccnn3C)c2)C2=C(CC(C)(C)CC2=O)Nc2n[nH]cc21 (centres unmarked) [Compound 911992] | – | – | < 100 nM | < 100 nM | –
24 | CC[C@]1(c2cccc(C(F)(F)F)c2)C2=C(CCN(c3ccccn3)C2=O)Nc2n[nH]cc21 | – | – | 100 to 1000 nM | > 5000 nM | –
25 | CC[C@@]1(c2cccc(N(C)c3ccc(F)nc3)c2)C2=C(CC(C)(C)CC2=O)Nc2n[nH]cc21 | – | – | < 100 nM | 100 to 1000 nM | –
26 | CC[C@]1(c2cccc(Cl)c2)C2=C(CC(C)(C)CC2=O)Nc2n[nH]c(C(F)(F)F)c21 | < 100 nM | < 100 nM | – | – | IC50 [1, 9]: < 100 nM; IC50 [2, 10]: 100 to 1000 nM
27 | CC[C@]1(c2cccc(-c3ccnc4cc(Cl)ccc34)c2)C2=C(CC(C)(C)NC2=O)Nc2n[nH]cc21 | < 100 nM | 100 to 1000 nM | – | – | –
28 | CC[C@@]1(c2cccc(C(F)(F)F)c2)C2=C(C[C@@H](C)CC2=O)Nc2n[nH]cc21 | < 100 nM | < 100 nM | – | – | IC50 [1, 9]: 100 to 1000 nM; IC50 [2, 10]: 1000 to 5000 nM
29 | CC[C@@]1(c2cc(N(C)C(C)=O)ccc2F)C2=C(CC(C)(C)CC2=O)Nc2n[nH]cc21 | – | – | < 100 nM | 100 to 1000 nM | –
